In patent US10844062B2, “Pyridine derivative inhibiting RAF kinase and vascular endothelial growth factor receptor, method for preparing same, pharmaceutical composition containing same, and use thereof” (SAMJIN PHARMACEUTICAL CO., LTD., priority 2016, dated 2020):
Read-outs that look alike come from different tables or passages of the source.

What was measured:
[1] = system: LS513 human colorectal cancer cell line xenograft; experiment: Antitumor effect on human colorectal cancer LS513 cell line xenograft; type: in vivo, Balb/c nu/nu nude mice; conditions: oral, twice a day, 60 mg/kg or 30 mg/kg (dose not specified per compound), 14 days
Experimental: The LS513 human colorectal cancer cell line was purchased from the ATCC and incubated in a 5% CO2 incubator with RPMI-1640b medium containing 10% fetal bovine serum and 1% penicillin-streptomycin at 37° C.
In this experiment, 5 to 6-week-old female Balb/c nu/nu nude mice (weighed 18 to 20 g) were used. The mice were provided from Nara Biotech Co., Ltd. During the experiment, all the animals were housed on a mouse constant temperature/constant humidity shelf (Individually Ventilated Cages System, LAB & BIO).
Each cage (37.2 cm length×19.2 cm width×13.1 cm height) was sterilized with a sterilizer, and eight mice were received in each cage. […]
The mice were acclimated to the housing facility for 1 week, and then 0.1 mL of a cell suspension containing 1×10^7 cells was injected subcutaneously into the right flank of each mouse. After cell transplantation, the volume of the formed tumor was measured, and mice with formed tumors having a volume of 150 mm^3 or more were randomly divided into groups (each consisting of 7 to 8 animals) for treatment with the test compounds and a control. […] At 3-day intervals from the starting day of the administration, the long axis and short axis of the tumor were measured with digital vernier calipers, and the tumor volume was calculated using the following equation and recorded: Tumor volume (TV)=Long axis×short axis^2/2. […]

[2] = system: A-375P BRAF V600E (melanoma); experiment: MTT assay; type: cell-based; conditions: Table 5; 3 days incubation
Experimental: (§1) MTT assay is frequently used for the purpose of primary screening for the sensitivity of anticancer agents and to examine cytotoxicity. When cancer cells are treated with varying concentrations of any anticancer agent for a predetermined time to induce death of the cells and are then treated with MTT, and when the formation of formazan is measured, the concentration of the anticancer agent, at which about 50% of the cells survive, can be determined. This concentration value is called IC50. IC50 values differ between drugs, and thus can be characteristic of the drugs. Using this method, the effects of anticancer agents against cell proliferation can be quantitatively compared. Thus, in order to measure the cytotoxicity of samples, MTT assay was performed using CellTiter 96 Non-radioactive Cell Proliferation Assay Kit (Promega).
(§2) Cells in a cell suspension were counted with a hematocytometer, and then 200 μL of the cell suspension was added to each well of a 96 well plate at a desired concentration (cell amount determined depending on a cell line). After cell seeding, the cells were incubated in a CO2 incubator at 37° C. overnight. After one day of cell stabilization, the cells were treated with desired concentrations of the compounds. The cells were incubated in a CO2 incubator at 37° C. for 3 days, and then the sample was removed, and 200 μL of MTT solution was added to each well. After 2 hours of incubation, the MTT dilution was carefully shaken, and 200 μL of DMSO was added to each well, followed by shaking with a plate shaker for 60 minutes. The absorbance at a wavelength of 570 nm was measured using an ELISA reader, thereby determining the IC50 value of each compound (the absorbance indicates the amount of MTT reduced by the cells and is proportional to the number of viable cells present in each well).

[3] = system: HCT-116 KRAS G13D (colon); experiment: MTT assay; type: cell-based; conditions: Table 5; 3 days incubation; read-out: MTT assay IC50 KRAS mutant (Colon) HCT-116 KRAS G13D
Experimental: as §1, §2

SW620 KRAS G12V (colon) = experiment: MTT assay; type: cell-based; conditions: Table 5; 3 days incubation; read-out: MTT assay IC50 KRAS mutant (Colon) SW620 KRAS G12V
Experimental: as §1, §2

WiDR BRAF V600E (colon) = experiment: MTT assay; type: cell-based; conditions: Table 5; 3 days incubation; read-out: MTT assay IC50 BRAF mutant (Colon) WiDR BRAF V600E
Experimental: as §1, §2

HUVEC (VEGF) = experiment: MTT assay; type: cell-based; conditions: Table 5; 3 days incubation
Experimental: as §1, §2

[4] = system: SK-MEL2 NRAS Q61R (melanoma); experiment: MTT assay; type: cell-based; conditions: Table 5; 3 days incubation
Experimental: as §1, §2

LS513 KRAS G12V (colon) = experiment: MTT assay; type: cell-based, human; conditions: 3 days incubation, read-out: MTT assay IC50 KRAS mutant (Colon) LS513 KRAS G12V
Experimental: as §1
Cells in a cell suspension were counted with a hematocytometer, and then 200 μL of the cell suspension was added to each well of a 96 well plate at a desired concentration (cell amount determined depending on a cell line). After cell seeding, the cells were incubated in a CO2 incubator at 37° C. overnight. After one day of cell stabilization, the cells were treated with desired concentrations of the compounds. The cells were incubated in a CO2 incubator at 37° C. for 3 days, and then the sample was removed, and 200 μL of MTT solution was added to each well. […]

`O=C(Nc1ccc(F)c(Nc2ncccc2-c2ncnc3[nH]cnc23)c1F)c1cc(N2CCOCC2)cc(C(F)(F)F)c1` [Comparative Example 1, reference compound] was tested, and the “antitumor effect (tumor growth inhibition) compared to the vehicle control” value [1] was 3.82%, the IC50 [2] was 0.002 µM and the IC50 [3] was 15.5 µM. For the same molecule, the IC50 (SW620 KRAS G12V (colon)) was 50 µM, the IC50 (WiDR BRAF V600E (colon)) was 0.335 µM and the IC50 (HUVEC (VEGF)) was 15 µM. The IC50 [4] was 4.34 µM, the IC50 (LS513 KRAS G12V (colon); Table 4) was over 50 µM and the IC50 (LS513 KRAS G12V (colon); Table 5) was 55.3 µM.
